We go through 3 molecules from patent US8906908B2 (dated 2014).

Protein sequences, listed by entry. Tags and fused reporters are not part of them.
UniProt Q01959, whole entry: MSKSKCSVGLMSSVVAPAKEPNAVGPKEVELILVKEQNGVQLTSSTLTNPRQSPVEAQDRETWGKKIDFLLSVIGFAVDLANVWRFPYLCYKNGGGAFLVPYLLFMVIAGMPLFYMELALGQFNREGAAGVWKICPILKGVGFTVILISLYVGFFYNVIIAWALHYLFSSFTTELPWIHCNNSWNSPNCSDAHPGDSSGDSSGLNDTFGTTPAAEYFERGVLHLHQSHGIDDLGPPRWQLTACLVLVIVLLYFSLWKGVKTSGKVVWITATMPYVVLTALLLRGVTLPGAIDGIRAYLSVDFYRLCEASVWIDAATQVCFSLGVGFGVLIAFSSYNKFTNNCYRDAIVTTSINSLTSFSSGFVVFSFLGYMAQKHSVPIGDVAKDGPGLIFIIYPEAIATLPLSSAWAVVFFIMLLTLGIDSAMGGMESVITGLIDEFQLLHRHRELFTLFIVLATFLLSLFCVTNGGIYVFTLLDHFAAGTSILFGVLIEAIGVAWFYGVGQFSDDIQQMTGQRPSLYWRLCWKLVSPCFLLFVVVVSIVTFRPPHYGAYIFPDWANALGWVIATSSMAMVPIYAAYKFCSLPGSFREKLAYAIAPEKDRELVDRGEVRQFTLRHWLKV
UniProt P31645, whole entry: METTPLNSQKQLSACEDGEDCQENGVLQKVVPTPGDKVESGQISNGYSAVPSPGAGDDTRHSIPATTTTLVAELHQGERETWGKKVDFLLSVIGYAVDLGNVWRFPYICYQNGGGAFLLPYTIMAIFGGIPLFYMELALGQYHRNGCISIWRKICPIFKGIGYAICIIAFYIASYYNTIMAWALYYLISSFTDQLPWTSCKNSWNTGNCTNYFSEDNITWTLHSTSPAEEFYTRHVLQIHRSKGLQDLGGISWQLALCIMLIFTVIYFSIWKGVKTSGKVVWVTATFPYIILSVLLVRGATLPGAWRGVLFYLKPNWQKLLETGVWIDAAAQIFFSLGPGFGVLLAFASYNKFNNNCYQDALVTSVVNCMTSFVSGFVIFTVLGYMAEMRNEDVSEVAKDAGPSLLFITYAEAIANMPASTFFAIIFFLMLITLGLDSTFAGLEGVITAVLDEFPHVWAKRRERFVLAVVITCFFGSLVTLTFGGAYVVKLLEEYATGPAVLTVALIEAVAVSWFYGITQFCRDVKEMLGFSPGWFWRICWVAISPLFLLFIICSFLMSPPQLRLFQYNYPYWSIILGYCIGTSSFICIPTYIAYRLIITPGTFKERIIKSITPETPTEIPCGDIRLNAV
UniProt P23975, whole entry: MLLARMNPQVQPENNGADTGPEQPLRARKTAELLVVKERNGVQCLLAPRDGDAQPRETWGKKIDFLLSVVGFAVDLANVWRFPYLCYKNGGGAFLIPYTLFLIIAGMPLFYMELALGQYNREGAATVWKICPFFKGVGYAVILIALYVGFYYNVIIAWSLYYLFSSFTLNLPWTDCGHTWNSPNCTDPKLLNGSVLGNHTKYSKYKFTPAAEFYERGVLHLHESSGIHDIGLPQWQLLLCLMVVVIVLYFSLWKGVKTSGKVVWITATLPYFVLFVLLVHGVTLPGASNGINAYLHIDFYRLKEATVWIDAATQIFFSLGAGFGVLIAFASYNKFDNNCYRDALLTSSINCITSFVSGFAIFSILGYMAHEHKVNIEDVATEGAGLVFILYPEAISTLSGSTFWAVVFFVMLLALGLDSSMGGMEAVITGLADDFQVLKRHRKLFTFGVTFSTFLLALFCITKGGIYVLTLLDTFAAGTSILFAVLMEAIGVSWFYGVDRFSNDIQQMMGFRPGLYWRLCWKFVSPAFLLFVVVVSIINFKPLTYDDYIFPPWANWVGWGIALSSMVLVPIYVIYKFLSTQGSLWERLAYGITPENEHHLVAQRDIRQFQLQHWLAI

Like-named read-outs stand apart in the source and are kept apart here.

Test [1] deals with human DA transporters [(h)DAT] (Homo sapiens, UniProt Q01959). The test is described as follows: Inhibition of [3H]dopamine uptake into HEK293 cells stably expressing hDAT.
Test [2] concerns the target 5HT transporters [(h)SERT] (Homo sapiens, UniProt P31645). Nature of the test: Inhibition of [3H]serotonin uptake into HEK293 cells stably expressing hSERT.
The next test concerns the target NE transporters [h(NET)] (Homo sapiens, UniProt P23975). The test is described as follows: Inhibition of [3H]norepinephrine uptake into HEK293 cells stably expressing hNET.

As for `C[C@H]1NC(C)(C)CO[C@]1(O)c1cccc(Cl)c1` [Compound (2R,3R)-4a, (2R,3R)-2-(3-Chlorophenyl)-3,5,5-trimethylmorpholin-2-ol, reference compound], the concentration for half-maximal inhibition (IC50) (commonly the point on the concentration scale where inhibition reaches its midpoint) was > 10 µM in test [1] (IC50 DA uptake inhibition); > 10 µM in test [1] (monoamine uptake inhibition IC50 [3H]DA, mean ± standard error of three independent experiments); > 10 µM in test [2].

On NE transporters [h(NET)], `CC(NC(C)(C)C)C(=O)c1cccc(Cl)c1` (racemic) [Compound 2, (±)-2-tert-butylamino-3′-chloropropiophenone, reference compound] showed an IC50 of 1.85 µM.

As for `C[C@@H]1NC(C)(C)CO[C@@]1(O)c1cccc(Cl)c1` [Compound (2S,3S)-4a, (2S,3S)-2-(3-Chlorophenyl)-3,5,5-trimethylmorpholin-2-ol, reference compound], the IC50 in test [1] (read-out: monoamine uptake inhibition IC50 [3H]DA, mean ± standard error of three independent experiments) was 0.63 µM; in test [2], > 10 µM. In addition, the “activity at the SERT / 5HT uptake inhibition, in words” value in test [2] is given as “Neither (2R,3R)-4a nor (2S,3S)-4a shows activity for 5HT uptake”.
